Target: D(3) dopamine receptor (Homo sapiens, UniProt P35462)
Test: biochemical

Protein sequences, listed by entry. Tags and fused reporters are not part of them.
UniProt P35462, whole entry: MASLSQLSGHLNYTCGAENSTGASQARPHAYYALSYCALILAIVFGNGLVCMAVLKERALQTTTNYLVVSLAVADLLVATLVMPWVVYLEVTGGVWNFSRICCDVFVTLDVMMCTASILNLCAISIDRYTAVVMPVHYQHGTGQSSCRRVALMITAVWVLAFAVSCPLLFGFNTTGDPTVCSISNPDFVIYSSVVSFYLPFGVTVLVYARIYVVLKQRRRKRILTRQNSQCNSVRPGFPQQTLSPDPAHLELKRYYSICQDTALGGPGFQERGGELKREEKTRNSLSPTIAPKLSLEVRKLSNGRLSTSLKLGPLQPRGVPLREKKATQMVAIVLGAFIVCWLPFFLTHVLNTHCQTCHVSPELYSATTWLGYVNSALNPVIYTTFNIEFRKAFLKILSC

- Ki: 66 nM
Structure (SMILES): Cc1ccc(OCCCNCCOc2ccccc2)cc1

Source: ChEMBL document CHEMBL1130257, “(Aryloxy)alkylamines as selective human dopamine D4 receptor antagonists: potential antipsychotic agents” (J Med Chem, 1997)
